The text below walks through data of paper PMC9467883.

Assay [1] concerns the target Human Trio SR6-GEF1 (human) (UniProt O75962).

In assay [1], “Human Rac1 (from UniProt P63000 1-192) (natural protein)” showed a catalytic efficiency kcat/KM of nucleotide exchange on Rac1 of 3100 M⁻¹ s⁻¹ and a kobs of exchange of BODIPY-FL-GDP for GTP on Rac1, 100 nM SR6-GEF1 of 0.00012 s⁻¹. Also, in the assay with Human Trio GEF1 (human), the catalytic efficiency kcat/KM of nucleotide exchange on Rac1 amounted to 19000 M⁻¹ s⁻¹ and the kobs of exchange of BODIPY-FL-GDP for GTP on Rac1, 100 nM GEF1 worked out at 0.0024 s⁻¹.
